Measured values from ChEMBL document CHEMBL1142517, “Discovery of an orally bioavailable small molecule inhibitor of prosurvival B-cell lymphoma 2 proteins” (J Med Chem, 2008).

By UniProt entry, the sequences of proteins in these tests, tags left out.
UniProt P10415, whole entry: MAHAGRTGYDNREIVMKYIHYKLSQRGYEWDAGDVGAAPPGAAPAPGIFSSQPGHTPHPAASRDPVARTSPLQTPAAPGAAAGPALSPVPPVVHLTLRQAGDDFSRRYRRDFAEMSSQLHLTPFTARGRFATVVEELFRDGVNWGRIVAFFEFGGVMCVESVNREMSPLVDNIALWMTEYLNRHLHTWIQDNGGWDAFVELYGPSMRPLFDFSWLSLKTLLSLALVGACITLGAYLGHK

Target: Apoptosis regulator Bcl-2 (Homo sapiens, UniProt P10415)
Assay: Displacement of fluorescein labeled Bax peptide from Bcl2 by fluorescence polarization assay

Ki: < 1 nM
SMILES: CC1(C)CCC(c2ccc(Cl)cc2)=C(CN2CCN(c3ccc(C(=O)NS(=O)(=O)c4ccc(N[C@H](CCN5CCOCC5)CSc5ccccc5)c(S(=O)(=O)C(F)(F)F)c4)cc3)CC2)C1 [NAVITOCLAX]
